How the values were obtained:
[1] = test system: murine STAM™ model of NASH-HCC; assay: Murine STAM model of NASH-HCC, second study (Example 2): H&E NAFLD activity scoring and Sirius red fibrosis area; type: in vivo, C57BL/6 mice; conditions: once daily oral, 6 to 9 weeks of age, Bromantane high 40 mg/kg, Telmisartan 10 mg/kg
Method: As before, male newborn C57BL/6 mice were used. All mice were born from pathogen-free 14 day-pregnant mice obtained from Japan SLC, Inc. (Hamamatsu, Japan) prior to the start of the study.
(§1) The murine STAM™ model of NASH-HCC was performed according to previously described methods known in the art (Takakura et al, Characterization of non-alcoholic steatohepatitis, Anticancer Res, 34(9):4849-55 (2014); Fujii et al, (2013)). NASH was induced in male mice by a single subcutaneous injection of 200 μg of streptozotocin (STZ, Sigma, Mo., USA) at 2 days after birth and continuous feeding after 4 weeks of age (day 28±2) with a high fat diet (CLEA Japan Inc, Tokyo, Japan) given ad libitum.
Following induction of NASH, the mice were randomized into 7 individual study groups of 8 mice each at 6 weeks of age (day 42±2) based on their body weight, the day before the start of treatment.
One day following randomization, the mice were administered a once-daily oral treatment from 6 weeks of age plus one day (day 43±2, treatment Day 1) to 9 weeks of age. The mice in 6 of the 7 study groups were treated individually with a therapeutic amount of a pharmacologic compound formulated with a pharmaceutically acceptable vehicle. […] The pharmaceutically acceptable vehicle in all groups was 0.5% CMC. […] Individual body weight was measured daily during the treatment period. Survival, clinical signs and behavior of mice were also monitored daily.
In each case, a volume of 10 mL/kg of 0.5% CMC was administered orally with (or without) the active ingredient as noted in Table 3 from 6 to 9 weeks of age. […]
The liver cross-sections of the treated groups were also subjected to Sirius-red staining using standard techniques for histological estimation of the percentage of fibrosis area. For quantitative analysis of fibrosis area, bright field images of Sirius red-stained sections were captured around the central vein using a digital camera (DFC295; Leica, Germany) at 200-fold magnification, and the positive areas in 5 fields/section were measured using ImageJ software (National Institute of Health, USA). […]

[2] = test system: murine STAM™ model of NASH-HCC; assay: Murine STAM model of NASH-HCC, first study (Example 1): H&E NAFLD activity scoring and Sirius red fibrosis area; type: in vivo, C57BL/6 mice
Method: Male newborn C57BL/6 mice were used. All mice were born from pathogen-free 14 day-pregnant mice obtained from Japan SLC, Inc. (Hamamatsu, Japan) prior to the start of the study.
as §1
Following induction of NASH, the mice were randomized into 12 individual study groups of 8 mice each at 6 weeks of age (day 42±2) based on body weight, the day before the start of treatment.
One day following randomization, the mice were administered a once-daily oral treatment from 6 weeks of age plus one day (day 43±2, treatment Day 1) to 9 weeks of age (hereinafter known as the “treatment period”). The mice in 11 of the 12 study groups (hereafter known as “treatment groups”) were treated individually with a distinct pharmacologic compound formulated with a pharmaceutically acceptable vehicle. […] The pharmaceutically acceptable vehicle in all groups was 0.5% carboxymethyl cellulose (CMC). […] Individual body weight was measured daily during the treatment period. Survival, clinical signs and behavior of mice were also monitored daily.
In each case, a volume of 10 mL/kg of 0.5% CMC was administered orally with (or without) the active ingredient as noted in Table 1 from 6 to 9 weeks of age until sacrifice. […]
For quantitative analysis of fibrosis area, bright field images of Sirius red-stained sections were captured around the central vein using a digital camera (DFC295; Leica, Germany) at 200-fold magnification, and the positive areas in 5 fields/section were measured using ImageJ software (National Institute of Health, USA). […]

[3] = once daily oral, 6 to 9 weeks of age, Bromantane 20 mg/kg, Istradefylline 18 mg/kg, Telmisartan 10 mg/kg

Which results are given for CCCc1nc2c(C)cc(-c3nc4ccccc4n3C)cc2n1Cc1ccc(-c2ccccc2C(=O)O)cc1 [Telmisartan, 2-(4-{[4-Methyl-6-(1-methyl-1H-1,3-benzodiazol-2-yl)-2-propyl-1H-1,3-benzodiazol-1-yl]methyl}phenyl)benzoic acid]?
fibrosis area (Sirius red-positive area) compared with the Vehicle group ([1]; Bemithyl 200 mg/kg, Cenicriviroc 30 mg/kg): tended to decrease; NAFLD activity score relative to Vehicle control ([1]; Cenicriviroc 30 mg/kg, Bemithyl 200 mg/kg): Statistically significant reductions; steatosis score relative to Vehicle control [1]: Statistically significant reductions; NAFLD Activity Scores, hepatic steatosis, lobular inflammation and hepatocellular ballooning (conclusion) ([2]; Istradefylline at 18 mg/kg, Telmisartan at 10 mg/kg oral, compared to the Vehicle group): showed improvement; NAFLD activity score relative to Vehicle control [2, 3]: Statistically significant reductions; fibrosis area (Sirius red-positive area) compared with the Vehicle group [2, 3]: tended to decrease

Source: patent US11744808B2, “Compositions and methods for treating non-alcoholic steatohepatitis” (ALGERNON PHARMACEUTICALS INC., priority 2018, dated 2023)
